One compound from patent publication US20040259766A1, “Use of glutamate, glutamate derivatives or metabolites, glutamate analogues or mixtures thereof for the manufacture of a composition for the treatment of osteoporosis” (priority 2004, published 2004) can be followed below.

Read-outs that look alike come from different tables or passages of the source.

The test system of one test is humerus and femur. The experiment in a line: Architectural and geometric properties of humerus and femur of piglets. It is filed as in vivo, pig. Conditions: piglets at 35 days of postnatal life; 0.4 g/kg b.w. oral once a day; mean ± SEM. The procedure:
All piglets suckled sow milk before weaning. After weaning at the age of 28 days piglets were fed ad libitum with a standard mixture Premix prestarter (PP) (Food plant-Motycz, Poland) and free access to water was allowed. Piglets were allotted to three experimental trials:
2—Second group, receiving 0.4 g/kg/b.w. of L-alanyl-L-glutamine (ala-gin), (2 ml solution/kg b.w.)
3—Third group, receiving 0.4 g/kgtb.w. α-keto-glutaric sodium salt, AKG, (2 ml solution/kg b.w.) once a day from the first day to the 35th day of life.
Animal weight gain was monitored every day before oral administration of saline, ala-gln or AKG. At the age of 35 days, piglets were sacrificed, eviscerated and bones were sampled.
Architectural and geometric properties of bone were estimated based on measurements of horizontal and vertical cross section as well as interior and exterior diameter of the bone.
Mean relative wall thickness (MRWT) expresses the ratio of wall to lumen measures and serves as an indicator in the process of architectural adaptation of bone to physiological stress during the growth of the body. When the lumen increases with unchanged wall thickness the MRWT decreases but bone resistance to strain increases.

Another test concerns ulna bone. Conditions: group A, 0.8 g/kg body weight oral, p<0.01.

For `O=C(O)CCC(=O)C(=O)O` [AKG, alpha-ketoglutaric acid], in the test with humerus and femur, the “Mean relative wall thickness (MRWT) femur” value was 0.70 ± 0.07 and the “Mean relative wall thickness (MRWT) humerus” value came to 0.57 ± 0.08. In addition, the “BMD-Vi (Volumetric index) of the ulna bone, difference compared to saline treated turkeys” value with ulna bone (left wing control (intact)) is 14.8%. The “BMD-Vi (Volumetric index) of the ulna bone, difference compared to saline treated turkeys” value with ulna bone (right wing experimental (neurectomized, fracture of the ulnae)) was “about 35.7%”.
